Data published in doi:10.1101/471615v1 (biorxiv, 2018).
pIC50: −log10 of the molar value.

Molecular target: T1, GAK (InCELL Pulse) (Homo sapiens, UniProt O14976)
T1 sequence (O14976 2-1311): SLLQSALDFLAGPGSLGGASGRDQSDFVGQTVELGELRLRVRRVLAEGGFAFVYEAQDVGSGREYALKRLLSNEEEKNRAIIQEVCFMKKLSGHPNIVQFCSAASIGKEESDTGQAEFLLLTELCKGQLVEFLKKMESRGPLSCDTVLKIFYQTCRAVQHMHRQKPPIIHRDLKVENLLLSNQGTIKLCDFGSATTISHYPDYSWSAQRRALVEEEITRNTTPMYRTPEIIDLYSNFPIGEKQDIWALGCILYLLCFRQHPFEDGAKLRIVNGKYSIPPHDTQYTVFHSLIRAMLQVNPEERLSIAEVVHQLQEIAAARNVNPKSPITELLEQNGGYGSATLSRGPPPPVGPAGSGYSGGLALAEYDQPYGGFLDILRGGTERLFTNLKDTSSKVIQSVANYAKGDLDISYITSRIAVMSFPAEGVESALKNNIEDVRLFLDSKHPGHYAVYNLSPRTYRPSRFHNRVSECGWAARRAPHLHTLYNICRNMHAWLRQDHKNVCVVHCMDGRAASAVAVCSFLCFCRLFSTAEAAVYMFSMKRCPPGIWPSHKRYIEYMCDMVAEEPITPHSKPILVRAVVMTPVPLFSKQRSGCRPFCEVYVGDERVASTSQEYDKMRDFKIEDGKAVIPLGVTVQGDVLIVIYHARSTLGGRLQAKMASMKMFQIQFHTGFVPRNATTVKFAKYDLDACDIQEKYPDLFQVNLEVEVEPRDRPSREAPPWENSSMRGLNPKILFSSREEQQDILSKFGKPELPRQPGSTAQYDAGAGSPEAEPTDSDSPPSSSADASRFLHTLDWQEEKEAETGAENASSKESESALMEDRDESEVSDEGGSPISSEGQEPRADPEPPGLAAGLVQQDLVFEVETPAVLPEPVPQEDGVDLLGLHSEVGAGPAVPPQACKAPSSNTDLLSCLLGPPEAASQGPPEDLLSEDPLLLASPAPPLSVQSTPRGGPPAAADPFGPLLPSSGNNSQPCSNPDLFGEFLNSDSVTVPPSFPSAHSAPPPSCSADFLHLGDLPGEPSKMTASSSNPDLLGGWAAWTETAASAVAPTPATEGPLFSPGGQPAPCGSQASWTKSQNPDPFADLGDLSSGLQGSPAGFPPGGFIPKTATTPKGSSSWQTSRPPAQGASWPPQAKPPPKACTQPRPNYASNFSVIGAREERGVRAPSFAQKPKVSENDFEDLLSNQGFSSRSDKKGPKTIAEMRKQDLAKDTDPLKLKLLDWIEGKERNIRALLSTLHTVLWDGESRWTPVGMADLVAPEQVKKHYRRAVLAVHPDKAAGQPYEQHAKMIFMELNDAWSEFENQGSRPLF
Assay: InCELL Pulse cellular target engagement
Type: cell-based
Settings: in cells

pIC50: 6.70
SMILES: COc1cc(Nc2ccnc3ccc(Br)cc23)cc(OC)c1OC [compound 5, 6-bromo compound (5)]
